Laboratory results taken from patent US20200239879A1.

Sequences of proteins named here, by UniProt entry; tags and fusion partners are left off.
UniProt Q99ZW2, whole entry: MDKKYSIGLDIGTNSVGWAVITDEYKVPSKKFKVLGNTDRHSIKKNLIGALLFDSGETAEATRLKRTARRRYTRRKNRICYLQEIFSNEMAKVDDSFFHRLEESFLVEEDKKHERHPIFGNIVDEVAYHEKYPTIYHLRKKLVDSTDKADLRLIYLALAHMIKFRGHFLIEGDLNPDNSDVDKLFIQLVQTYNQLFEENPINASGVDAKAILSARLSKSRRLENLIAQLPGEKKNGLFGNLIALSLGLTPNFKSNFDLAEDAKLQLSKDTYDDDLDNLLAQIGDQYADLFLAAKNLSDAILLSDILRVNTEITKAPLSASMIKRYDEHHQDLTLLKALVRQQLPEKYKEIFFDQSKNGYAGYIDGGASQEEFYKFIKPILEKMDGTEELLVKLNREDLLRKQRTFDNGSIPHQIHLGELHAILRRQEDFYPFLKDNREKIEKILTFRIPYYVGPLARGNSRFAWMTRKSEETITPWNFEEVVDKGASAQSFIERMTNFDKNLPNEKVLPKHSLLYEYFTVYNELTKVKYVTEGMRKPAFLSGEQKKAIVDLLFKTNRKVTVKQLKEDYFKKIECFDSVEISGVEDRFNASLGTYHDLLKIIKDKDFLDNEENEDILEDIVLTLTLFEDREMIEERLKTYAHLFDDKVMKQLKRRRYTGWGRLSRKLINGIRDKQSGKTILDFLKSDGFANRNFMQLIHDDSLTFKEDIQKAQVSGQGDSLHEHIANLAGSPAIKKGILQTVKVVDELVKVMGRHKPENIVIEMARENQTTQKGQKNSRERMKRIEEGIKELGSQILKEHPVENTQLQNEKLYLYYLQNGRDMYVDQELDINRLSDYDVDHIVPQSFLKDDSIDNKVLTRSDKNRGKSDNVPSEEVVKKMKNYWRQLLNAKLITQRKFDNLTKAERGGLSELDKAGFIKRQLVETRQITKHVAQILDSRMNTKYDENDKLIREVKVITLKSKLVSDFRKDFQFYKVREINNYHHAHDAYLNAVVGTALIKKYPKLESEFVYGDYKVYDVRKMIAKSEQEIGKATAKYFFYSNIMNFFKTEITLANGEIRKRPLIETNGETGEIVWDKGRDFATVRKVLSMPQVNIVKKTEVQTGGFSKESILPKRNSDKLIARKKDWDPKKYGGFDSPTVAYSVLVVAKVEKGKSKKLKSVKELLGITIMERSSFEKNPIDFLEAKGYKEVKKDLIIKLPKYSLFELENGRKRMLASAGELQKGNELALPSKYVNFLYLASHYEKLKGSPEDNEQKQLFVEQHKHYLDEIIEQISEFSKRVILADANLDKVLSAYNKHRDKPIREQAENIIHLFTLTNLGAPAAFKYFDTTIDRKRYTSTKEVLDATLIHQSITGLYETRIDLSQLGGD

Molecular target: Streptococcus pyogenes Cas9 (SpCas9) (Streptococcus pyogenes) (UniProt Q99ZW2)
Experiment: cell-based or functional assay

How did the IC50 (Spinach in vitro transcription assay, inhibition of SpCas9 nuclease activity, 5 nM SpCas9) turn out when AcrIIA4 from Listeria monocytogenes was run?
Its IC50 (Spinach in vitro transcription assay, inhibition of SpCas9 nuclease activity, 5 nM SpCas9) is 9.1 nM.
